Assay results as given in PMC5465288, “[^68Ga]/[^188Re] Complexed [CDTMP] Trans-1,2-Cyclohexyldinitrilotetraphosphonic Acid As a Theranostic Agent for Skeletal Metastases” (Frontiers in Medicine, 2017).
Read-outs that look alike come from different tables or passages of the source.

Experiments:
Biodistribution study = assay type: in vivo, BALB/c mice; settings: mice, 3.7 MBq i.v., 45 min postinjection
Protocol: 3.7 MBq of labeled [^68Ga]-CDTMP complex was injected intravenously into the tail vein of each animal. The animals were dissected at particular time intervals up to 2 h postinjection, and desired organs were collected for [^68Ga]-CDTMP and for [^188Re]-CDTMP, the biodistribution was carried out up to 96 h at specific time intervals. The required organs were removed, made free from adhering tissue, and washed with normal saline. The radioactivity in each organ was counted using gamma counter. The data are expressed as the percent-administered dose per gram of the organ.

[1] = human serum, 37°C, after 3 h
[2] = rabbit, 20 MBq i.v.
[3] = rabbit, 45 min postinjection
[4] = Balb/C mice, 45 min postinjection
[5] = MicroPET semiquantitative analysis

In the case of “[^68Ga]-trans-1,2-cyclohexyldinitrilo tetramethylene phosphonic acid [[^68Ga]-CDTMP]”, the maximum bone uptake (Biodistribution study) was 6.12 ± 1.22 %ID/g, the “remaining intact in serum” value [1] was 97.5% and the “activity remained in the blood” value ([2]; at 4 h) was “approximately 18%”. For the same substance, the “biological half-life t1/2 (fast)” value ([2]; blood) was 12 min, the “bone to muscle ratio” value ([3]; PET volume of interest analysis) was 21.258 ± 1.3 and the “bone uptake in PET image” value [3] was “High bone uptake as compared to contralateral tissue”. For the same substance, the “bone uptake in MicroPET image” value [4] was “High bone uptake as compared to contralateral tissue”, the “bone to kidney ratio” value [4, 5] was 7.976 ± 0.78 and the “bone to muscle ratio” value [4, 5] was 24.146 ± 0.98.
